The record followed here is patent US20220380338A1, “CYCLOALKYL 3-OXOPIPERAZINE CARBOXAMIDES AND CYCLOHETEROALKYL 3-OXOPIPERAZINE CARBOXAMIDES AS NAV1.8 INHIBITORS” (Merck Sharp & Dohme LLC, priority 2021, published 2022).

Sequences of proteins named here, by UniProt entry; tags and fusion partners are left off.
UniProt Q9Y5Y9, whole entry: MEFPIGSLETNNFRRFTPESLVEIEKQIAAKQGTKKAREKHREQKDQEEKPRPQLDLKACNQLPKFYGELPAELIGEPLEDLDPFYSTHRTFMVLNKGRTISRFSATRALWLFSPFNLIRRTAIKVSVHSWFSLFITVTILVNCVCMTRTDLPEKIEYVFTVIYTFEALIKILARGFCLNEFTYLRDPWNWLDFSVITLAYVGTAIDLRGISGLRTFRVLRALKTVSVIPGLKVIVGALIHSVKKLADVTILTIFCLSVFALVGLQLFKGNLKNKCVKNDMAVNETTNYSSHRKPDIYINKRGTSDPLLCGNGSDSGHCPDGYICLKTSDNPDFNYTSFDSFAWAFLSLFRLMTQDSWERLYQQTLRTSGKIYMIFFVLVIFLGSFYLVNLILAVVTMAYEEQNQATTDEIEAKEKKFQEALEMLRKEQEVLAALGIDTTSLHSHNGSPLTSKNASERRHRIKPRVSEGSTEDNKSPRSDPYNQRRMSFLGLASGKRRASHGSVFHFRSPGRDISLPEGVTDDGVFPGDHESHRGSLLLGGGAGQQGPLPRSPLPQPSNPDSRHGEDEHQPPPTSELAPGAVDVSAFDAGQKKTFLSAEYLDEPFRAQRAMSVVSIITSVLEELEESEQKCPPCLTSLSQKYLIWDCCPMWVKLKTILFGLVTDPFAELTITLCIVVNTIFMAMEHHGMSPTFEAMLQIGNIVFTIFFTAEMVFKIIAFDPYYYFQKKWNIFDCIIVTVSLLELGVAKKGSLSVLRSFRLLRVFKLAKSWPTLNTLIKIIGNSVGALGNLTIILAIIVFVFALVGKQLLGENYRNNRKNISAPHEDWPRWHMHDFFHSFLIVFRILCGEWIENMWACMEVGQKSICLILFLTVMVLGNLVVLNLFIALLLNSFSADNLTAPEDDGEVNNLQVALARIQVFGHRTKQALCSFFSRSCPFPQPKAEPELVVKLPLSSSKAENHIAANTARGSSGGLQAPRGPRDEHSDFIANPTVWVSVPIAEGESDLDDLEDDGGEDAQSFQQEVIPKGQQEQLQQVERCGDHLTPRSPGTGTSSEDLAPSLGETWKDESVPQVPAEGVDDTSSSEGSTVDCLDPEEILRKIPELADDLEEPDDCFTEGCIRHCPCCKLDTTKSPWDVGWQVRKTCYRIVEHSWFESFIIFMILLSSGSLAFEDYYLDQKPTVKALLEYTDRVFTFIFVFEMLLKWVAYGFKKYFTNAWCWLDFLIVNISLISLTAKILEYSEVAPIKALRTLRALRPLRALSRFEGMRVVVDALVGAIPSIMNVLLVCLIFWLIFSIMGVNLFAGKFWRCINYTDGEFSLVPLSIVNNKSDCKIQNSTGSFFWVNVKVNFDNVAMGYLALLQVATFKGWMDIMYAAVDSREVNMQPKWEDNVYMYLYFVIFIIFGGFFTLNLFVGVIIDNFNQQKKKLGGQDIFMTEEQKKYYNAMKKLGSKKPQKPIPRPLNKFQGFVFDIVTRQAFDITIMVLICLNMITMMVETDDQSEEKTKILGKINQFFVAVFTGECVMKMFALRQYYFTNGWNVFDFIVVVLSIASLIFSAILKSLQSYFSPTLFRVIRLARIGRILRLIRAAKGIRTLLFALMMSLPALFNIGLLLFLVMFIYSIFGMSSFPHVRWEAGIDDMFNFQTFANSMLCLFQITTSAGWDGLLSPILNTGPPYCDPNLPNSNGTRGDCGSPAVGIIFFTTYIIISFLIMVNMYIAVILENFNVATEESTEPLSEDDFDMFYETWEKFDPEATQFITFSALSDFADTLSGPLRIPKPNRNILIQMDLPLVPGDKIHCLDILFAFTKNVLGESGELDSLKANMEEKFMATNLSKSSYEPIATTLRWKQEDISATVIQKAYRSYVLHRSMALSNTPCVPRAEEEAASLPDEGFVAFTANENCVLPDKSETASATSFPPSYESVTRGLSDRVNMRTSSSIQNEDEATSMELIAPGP

SMILES strings stand for the structures.

The target in the experiment is human NaV1.8 (Homo sapiens, UniProt Q9Y5Y9). As to the kind of experiment: Nav1.8 Qube® Assay (automated 384-well patch-clamp, inhibition of sodium current). Conditions: human NaV1.8 channels stably expressed in HEK 293 cells, room temperature. The protocol:
Compounds were tested on human NaV1.8 and NaV1.5 channels stably expressed in human embryo kidney (HEK) 293 cells. Sodium current measurements on Qube® were conducted as follows: automated 384-well patch-clamp assays on the Qube® platform (Sophion Biosciences) were used to measure the inhibition of sodium flow through human NaV1.8 and NaV1.5 channels. Whole-cell voltage-clamp recordings were performed in QChips® (Sophion Biosciences) at room temperature. NaV1.8 current measurements on Qube® were obtained as follows: NaV1.8 currents were elicited with a 10 second 1 Hertz (Hz) pulse train from a holding potential of −90 millivolts (mV), delivered to the cells once per minute in the control condition (DMSO only) and after compound addition. The 1 hertz pulse train stimulation consisted of ten test pulses to 10 millivolt (mV) for 20 milliseconds (ms), each of which was followed by a 980 millisecond repolarization to −67 millivolts. At the end of the 10 second pulse train stimulation, a 5 second hyperpolarization step to −100 millivolt (mV) was used to recover NaV1.8 from fast inactivation. […]
For all Qube® experiments offline analysis was used to determine percent inhibition as a function of drug concentration. IC50 values were determined by fitting to the Hill equation.
For orientation: Patch clamp records ionic current or voltage across a cell membrane.

For orientation: IC50 means the point on the concentration scale where inhibition reaches its midpoint. `CC1(C)CC(C(NC(=O)N2CCNC(=O)C2)c2ccc(F)c(Cl)c2F)C1` (single isomer, unassigned) [32A] yielded an IC50 of 571 nM.
The same measure for `CC1(C)CC(C(NC(=O)N2CCNC(=O)C2)c2ccc(F)c(Cl)c2F)C1` (single isomer, unassigned) [32B]: 3.93 nM.
